From US20030120046A1, “Radioisotope-labeled complexes of glucose derivatives and kits for the preparation thereof” (priority 2000, published 2003)
Read-outs that look alike come from different tables or passages of the source.

Legend:
[1] = Stability test of radiopharmaceuticals in the human plasma (purity by TLC); settings: room temperature, mean of 3 experiments
Procedure: (§1) The stability of radiopharmaceuticals was expressed as the purity of radiopharmaceutical at a given time, and measured after 0, 2, 4 and 6 hrs in a physiological saline and the human plasma, respectively. […] After well stirring the ingredients in each vial, the stability was measured at given times at room temperature.
(§2) The stability was measured as follows. 5 μl of each radiopharmaceutical was deposited in the lower part of TLC and was developed using methyl ethyl ketone (or acetone) and 0.9% physiological saline, respectively. Upon completion of development, each TLC was equally divided into 2 parts and the radioactivity of each part was measured using gamma counter. The stability was calculated by measurement of the purity from the obtained radioactivity. […] The purity of radiopharmaceuticals is calculated as follows.
(§3) 100%−[(radioactivity in the upper part of TLC developed with acetone÷radioactivity in the whole TLC developed with acetone)+(radioactivity in the lower part of TLC developed with 0.9% physiological saline÷radioactivity in the whole TLC developed with 0.9% physiological saline)]×100%

VX-2 tumor cells [2] = settings: for Normal region counts / Tumor counts: 1.5 mCi i.v.; for Tumor uptake/normal region uptake ratio: Mean ± S.D. from 3 experiments
[3] = Stability test of radiopharmaceuticals in a physiological saline (purity by TLC); format: physicochemical; settings: room temperature, mean of 3 experiments
Procedure: as §1, §2, §3

VX-2 tumor cells [4] = settings: for Uptake rate of radiopharmaceutical: 3 hours after injection, Mean ± S.D. from 3 experiments
[5] = anterior image, 1 hour after injection
[6] = anterior image, 3 hours after injection
[7] = posterior image, 1 hour after injection
[8] = posterior image, 3 hours after injection

99mTc-5-thio-D-glucose [^99mTc-5-thio-D-glucose]
Purity of radiopharmaceuticals at given times ([1]; 0 h): 99.8%
Purity of radiopharmaceuticals at given times ([1]; 2 h): 98.2%
Purity of radiopharmaceuticals at given times ([1]; 4 h): 95.1%
Purity of radiopharmaceuticals at given times ([1]; 6 h): 90.0%
Tumor/Normal ratio (VX-2 tumor cells [2]; [5]): 2.0
Normal region counts (VX-2 tumor cells [2]; [5]): 600 counts
Tumor counts (VX-2 tumor cells [2]; [5]): 1208 counts
Tumor uptake/normal region uptake ratio (VX-2 tumor cells [2]; anterior image, 1 hour): 2.55 ± 0.71
Tumor/Normal ratio (VX-2 tumor cells [2]; [6]): 2.2
Normal region counts (VX-2 tumor cells [2]; [6]): 478 counts
Tumor counts (VX-2 tumor cells [2]; [6]): 1037 counts
Tumor uptake/normal region uptake ratio (VX-2 tumor cells [2]; anterior image, 3 hours): 3.12 ± 0.67
Tumor/Normal ratio (VX-2 tumor cells [2]; [7]): 2.5
Normal region counts (VX-2 tumor cells [2]; [7]): 613 counts
Tumor counts (VX-2 tumor cells [2]; [7]): 1538 counts
Tumor/Normal ratio (VX-2 tumor cells [2]; [8]): 2.9
Normal region counts (VX-2 tumor cells [2]; [8]): 436 counts
Tumor counts (VX-2 tumor cells [2]; [8]): 1283 counts
Purity of radiopharmaceuticals at given times ([3]; 0 h): 99.8%
Purity of radiopharmaceuticals at given times ([3]; 2 h): 98.7%
Purity of radiopharmaceuticals at given times ([3]; 4 h): 98.2%
Purity of radiopharmaceuticals at given times ([3]; 6 h): 98.0%

^99mTc-1-thio-D-glucose
Purity of radiopharmaceuticals at given times ([1]; 0 h): 99.5%
Purity of radiopharmaceuticals at given times ([1]; 2 h): 98.0%
Purity of radiopharmaceuticals at given times ([1]; 4 h): 95.4%
Purity of radiopharmaceuticals at given times ([1]; 6 h): 92.0%
Tumor/Normal ratio (VX-2 tumor cells [2]; [5]): 4.0
Normal region counts (VX-2 tumor cells [2]; [5]): 1762 counts
Tumor counts (VX-2 tumor cells [2]; [5]): 7133 counts
Tumor uptake/normal region uptake ratio (VX-2 tumor cells [2]; anterior image, 1 hour): 3.32 ± 0.79
Tumor/Normal ratio (VX-2 tumor cells [2]; [6]): 6.2
Normal region counts (VX-2 tumor cells [2]; [6]): 888 counts
Tumor counts (VX-2 tumor cells [2]; [6]): 5499 counts
Tumor uptake/normal region uptake ratio (VX-2 tumor cells [2]; anterior image, 3 hours): 3.82 ± 1.24
absorption into tumor seen in gamma camera images (FIG. 1) (VX-2 tumor cells [2]; images at 1 and 3 hours after injection, in words): a large amount
Tumor/Normal ratio (VX-2 tumor cells [2]; [7]): 4.1
Normal region counts (VX-2 tumor cells [2]; [7]): 2142 counts
Tumor counts (VX-2 tumor cells [2]; [7]): 8876 counts
Tumor/Normal ratio (VX-2 tumor cells [2]; [8]): 6.1
Normal region counts (VX-2 tumor cells [2]; [8]): 1172 counts
Tumor counts (VX-2 tumor cells [2]; [8]): 7194 counts
Purity of radiopharmaceuticals at given times ([3]; 0 h): 99.5%
Purity of radiopharmaceuticals at given times ([3]; 2 h): 99.6%
Purity of radiopharmaceuticals at given times ([3]; 4 h): 98.6%
Purity of radiopharmaceuticals at given times ([3]; 6 h): 98.1%
Uptake rate of radiopharmaceutical (VX-2 tumor cells [4]; Blood): 0.099 ± 0.035 % ID/g
Uptake rate of radiopharmaceutical (VX-2 tumor cells [4]; Bone): 0.019 ± 0.015 % ID/g
Uptake rate of radiopharmaceutical (VX-2 tumor cells [4]; Heart): 0.120 ± 0.038 % ID/g
Uptake rate of radiopharmaceutical (VX-2 tumor cells [4]; Kidney): 6.225 ± 1.619 % ID/g
Uptake rate of radiopharmaceutical (VX-2 tumor cells [4]; Liver): 0.330 ± 0.138 % ID/g
Uptake rate of radiopharmaceutical (VX-2 tumor cells [4]; Lung): 0.182 ± 0.072 % ID/g
Uptake rate of radiopharmaceutical (VX-2 tumor cells [4]; Normal (left thigh muscle)): 0.026 ± 0.018 % ID/g
Uptake rate of radiopharmaceutical (VX-2 tumor cells [4]; Small intestine): 0.125 ± 0.039 % ID/g
Uptake rate of radiopharmaceutical (VX-2 tumor cells [4]; Spleen): 0.145 ± 0.065 % ID/g
Uptake rate of radiopharmaceutical (VX-2 tumor cells [4]; Stomach): 0.109 ± 0.051 % ID/g
Uptake rate of radiopharmaceutical (VX-2 tumor cells [4]; Tumor (right thigh muscle)): 0.165 ± 0.048 % ID/g
abdomen uptake (VX-2 tumor cells [4]; rabbits, in words): negligible
